# Earlier results in publication PMC9334274, “A unique class of Zn^2+-binding serine-based PBPs underlies cephalosporin resistance and sporogenesis in Clostridioides difficile” (Nature Communications, 2022).
# Tested on: Clostridioides difficile infection (CDI)
# Conditions: cited from earlier work
compound,measurement,value
CCC[C@@H]1C[C@@H](C(=O)N[C@@H]([C@H]2O[C@H](SC)[C@H](O)[C@@H](O)[C@H]2O)[C@H](C)Cl)N(C)C1 [clindamycin],odds ratio for CDI,2.86
